Amino acid sequences for entries named in this document (tags omitted). Residues count along the entry.
UniProt P07333, 20-972 limits assumed: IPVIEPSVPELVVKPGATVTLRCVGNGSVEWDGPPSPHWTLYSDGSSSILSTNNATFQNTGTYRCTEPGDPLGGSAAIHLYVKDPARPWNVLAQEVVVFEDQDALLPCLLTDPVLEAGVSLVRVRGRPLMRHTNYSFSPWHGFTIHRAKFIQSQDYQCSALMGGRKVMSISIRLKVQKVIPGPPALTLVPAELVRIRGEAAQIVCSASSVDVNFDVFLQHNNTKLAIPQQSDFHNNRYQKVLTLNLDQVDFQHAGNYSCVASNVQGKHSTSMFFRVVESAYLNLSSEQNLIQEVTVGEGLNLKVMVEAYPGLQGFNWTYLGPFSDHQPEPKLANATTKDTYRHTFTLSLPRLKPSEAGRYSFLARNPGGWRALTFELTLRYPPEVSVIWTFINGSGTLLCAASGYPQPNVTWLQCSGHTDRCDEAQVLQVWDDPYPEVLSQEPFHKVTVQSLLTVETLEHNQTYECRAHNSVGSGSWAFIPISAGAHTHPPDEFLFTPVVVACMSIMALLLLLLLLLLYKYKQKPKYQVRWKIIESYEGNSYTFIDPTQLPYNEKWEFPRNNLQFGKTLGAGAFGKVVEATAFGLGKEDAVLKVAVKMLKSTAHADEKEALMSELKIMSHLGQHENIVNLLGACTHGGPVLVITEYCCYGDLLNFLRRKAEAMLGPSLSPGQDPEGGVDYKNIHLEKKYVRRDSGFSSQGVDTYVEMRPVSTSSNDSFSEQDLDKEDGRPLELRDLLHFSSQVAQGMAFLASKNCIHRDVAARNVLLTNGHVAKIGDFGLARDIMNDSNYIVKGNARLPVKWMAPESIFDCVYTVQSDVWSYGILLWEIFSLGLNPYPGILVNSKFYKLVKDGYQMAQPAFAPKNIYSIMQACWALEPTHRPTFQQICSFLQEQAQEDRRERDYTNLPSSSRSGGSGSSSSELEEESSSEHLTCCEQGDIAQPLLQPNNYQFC

In paper PMC6084503, “Pyrrolo[3,2-c]pyridine derivatives with potential inhibitory effect against FMS kinase: in vitro biological studies” (Journal of Enzyme Inhibition and Medicinal Chemistry, 2018):

Biological target: FMS kinase (Homo sapiens, UniProt P07333)
Assay: Kinase HotSpot cell-free enzyme assay, FMS kinase
Conditions: read-out: IC50 against FMS kinase; 10-dose duplicate assay, mean ± SEM, starting with 81 µM, threefold serial dilution
Method: Reaction Biology Corp. Kinase HotSpot^SM service [http://www.reactionbiology.com] was utilised for screening of the target compounds as per the protocol reported in the literature. In order to calculate the IC50 values and the inhibition percentages at different concentrations, each compound was tested in 10-dose duplicate assay mode starting with 81 µM and threefold serial dilution.
Compounds 1a–r were tested in a 10-dose testing mode starting with 81 µM, threefold serial dilutions, against FMS kinase in a cell-free enzyme assay. […] This can be due to occupancy of a hydrophobic pocket with that additional benzoyl moiety and/or formation of additional hydrogen bond by the carbonyl oxygen.

SMILES | IC50 [nM]
O=C(Nc1ccc(-n2ccc3c(NC(=O)c4ccccc4)nccc32)cc1)Nc1cccc(C(F)(F)F)c1 | 190
O=C(Nc1cccc(-n2ccc3c(NC(=O)c4ccccc4)nccc32)c1)Nc1cccc(C(F)(F)F)c1 | 1430
Nc1nccc2c1ccn2-c1ccc(NC(=O)c2cc(C(F)(F)F)cc(C(F)(F)F)c2)cc1 | > 81000
O=C(Nc1ccc(-n2ccc3c(NC(=O)c4ccccc4)nccc32)cc1)c1cc(C(F)(F)F)cc(C(F)(F)F)c1 | > 81000
